Tests used:
N87 = test: Soft agar colony formation, N87; details: 5 or 10 μM, 6 weeks; tested form: HCl
Protocol: (§1) A bottom layer of 0.8% agarose in DMEM supplemented with 20% SVF and penicillin/streptomycin was added to 24 well plates before seeding 15.10^3 N87 cells/well in a 0.6% agarose top layer. Cells were left untreated or treated with 5 or 10 μM ZU or 5 μM AG1478 (a non-specific ErbB2 kinase inhibitor) as a positive control. Treatments were renewed 3 times a week. After 6 weeks, the number of colonies and their size were quantified using image J software. The colony formation is illustrated for each condition. Data are presented as mean±SEM (One way ANOVA: F(3, 6)=170.9; Dunnett's Post Hoc Test ****p<0.0001).

ErbB2 [1] = target: T1, ErbB2 (Homo sapiens, UniProt P04626); test: ErbB2 activation in SKOV3 cells, dot blot (4G10); details: tested form: HCl
Protocol: (§2) The phosphotyrosine content in the ErbB2-overexpressing ovarian cancer cell line SKOV3 was analyzed by dot blot using an anti-phosphotyrosine antibody (clone 4G10). As in these cells, ErbB2 is the main phosphorylated protein, decreased in total phosphotyrosine content mainly reflected inhibition of ErbB2 activity. As a control, the non-specific ErbB2 kinase inhibitor AG1478 was used. Quantifications show the result of two independent experiments.

[2] = test system: V842I ErbB2-transfected cells; test: MTT cell proliferation, V842I ErbB2-transfected HBMEC; details: 10 μM, day 3; tested form: HCl
Protocol: The WT, V777L or V842I ErbB2-transfected cells were treated with 5 or 10 μM of ZU and cell proliferation was determined each day during 3 days using an MTT assay. Non transfected cells were included as a negative control.
The WT, V777L or V842I ErbB2-transfected cells were treated with 5 or 10 μM of EB1 and cell proliferation was determined each day during 3 days using an MTT assay. Non transfected cells were included as a negative control.

MDA-MB-231 = test: MTT cell proliferation, MDA-MB-231; details: tested form: HCl
Protocol: We then analyzed the ability of ZU and EB1 and their derivatives to decrease the ErbB2-dependent cell proliferation. We used the ErbB2-overexpressing human breast cancer cell lines SKBR3 and BT474, as well as two non ErbB2-dependent breast cancer cell lines MCF7 and MDA-MB-231 and normal human endothelial cells (HBMEC) as a control, to discard compounds presenting non-specific toxic effects.
SKBR3, BT474, MCF-7, MDA-MB-231 and HBMEC cells were treated with the compounds as indicated, and cell proliferation was determined each day during 3 days using an MTT assay. Non treated cells were included as a negative control.
The ErbB2-overexpressing gastric cancer cell line N87 and MDAMB-231, a non ErbB2-overexpressing breast cancer cell line were treated with 3, 5 or 7 μM of ZU and cell proliferation was determined each day during 3 days using an MTT assay. Non treated cells were included as a negative control.
The ErbB2-overexpressing ovarian cancer cell line SKOV3 and MDAMB-231, a non ErbB2-overexpressing breast cancer cell line were treated with 3, 5 or 7 μM of ZU and cell proliferation was determined each day during 3 days using an MTT assay. Non treated cells were included as a negative control.

[3] = target: peptide encoding the juxtamembrane region of ERBB2 (Homo sapiens, UniProt P04626); test: Surface Plasmon Resonance, Biacore T200; details: tested form: HCl
Text: We analyzed the ability of ZU to directly bind to the juxtamembrane domain of ErbB2 using Surface Plasmon Resonance assays on a Biacore T200. For that, we compared the affinity of the compounds for a peptide containing the Ezrin binding motif ILIKRRQQKIRKYTMRRL of ErbB2 immobilized on sensorchips, which was reflected by the amplitude of the SPR response.
Compound ZU and EB1 were validated for their interaction with peptide encoding the juxtamembrane region of ERBB2 using a Biacore T200 (IECB, Bordeaux). Biotinylated peptide encoding the juxtamembrane region of ERBB2 (biotin-ILIKRRQQKIRKYTMRRL) has been immobilized on Streptavidin-coated sensor chips (Series S sensor chip SA, GE Healthcare). Compound ZU in PBS, 0.02% tween20 buffer was used as analyte, and the Ezrin FERM domain has been used as a positive control.

ErbB2 [4] = target: T1, ErbB2; test: ErbB2 phosphorylation in SKBR3 cells, dot blot (4G10); details: tested form: HCl
ErbB2 [5] = target: T1, ErbB2; test: ErbB2 activation in N87 cells, dot blot (4G10); details: tested form: HCl
Protocol: as §2, with “gastric” for “ovarian”, “N87” for “SKOV3”

BT474 = test: Soft agar colony formation, BT474; details: 5 or 10 μM, 6 weeks; tested form: HCl
Protocol: as §1, with “25.10^3 SKBR3 or BT474” for “15.10^3 N87”, “ZU or EB1” for “ZU”, “mean±SEM.” for “mean±SEM (One way ANOVA: F(3, 6)=170.9; Dunnett's Post Hoc Test ****p<0.0001).”

With `OCCN1CCN(CC/C=C2/c3ccccc3Sc3ccc(Cl)cc32)CC1` the “inhibition of N87 microcolony formation” value (N87) was 50%, the “ErbB2 activation in SKOV3 cell line (in words)” value (ErbB2 [1]) was “potently decreases ErbB2 activation” and the “decrease of the proliferation of V842I transfected HBMEC” value [2] was 65%. For the same compound, the “effect on MDA-MB-231 proliferation (in words)” value (MDA-MB-231; 5 μM) was “without any effect”, the “effect on MDAMB-231 control cell line proliferation (in words)” value (MDA-MB-231; 3, 5 and 7 μM) was “no effect” and the “binding to immobilized ErbB2 juxtamembrane peptide (SPR, in words)” value [3] was “bound to the immobilized peptide”. The “ErbB2 activation 24 h Max inhibition, %” value (ErbB2 [4]; SKBR3, 24 h, 0.625-80 μM) was 93.22%, the “maximum inhibition of ErbB2 phosphorylation” value (ErbB2 [4]; SKBR3, 24 h) was 90% and the “effect on ErbB2 phosphorylation/activation (in words)” value (ErbB2 [4]; SKBR3) was “similarly inhibited ErbB2 activation”. For the same compound, the EC50 (ErbB2 [4]; read-out: ErbB2 activation 24 h EC50, SKBR3, 24 h) was 22.4 µM, the IC50 (ErbB2 [4]; read-out: IC50 ErbB2 phosphorylation, SKBR3, 24 h) was 20 µM and the “ErbB2 activation in N87 cell line (in words)” value (ErbB2 [5]) was “potently decrease ErbB2 activation”. For the same compound, the “anchorage-independent growth of BT474 (in words)” value (BT474) was “inhibited the anchorage-independent growth”.
